# Screens from PubChem.
# miR-21 reporter: raises the signal of a miR-21 reporter | HeLa miR-21 FLuc reporter, luciferase, 48 h | 340,000 tested, under 10 active | Potency, µM (titrated, usually from 38.3 µM), inactives show at the highest dose reporter change, positive = more light; active = well fitted rising curve with a large enough effect; inconclusive = small, poorly fitted or top-dose-only effect; inactive = no such curve, though single readings can be large or run the other way;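 further: % of control where 0% means no effect; miR-21 action dims this reporter so a rising signal means less miR-21 action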
#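 HeLa miR-21-FLuc reporter line, endogenous miR-21; 2000 cells/well in DMEM/10% FBS; compound titration up to ~40uM final, 48 h, 37 degree Celsius; luciferase detection reagent, 15 min lysis, CCD luminescence.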
# DT40 TDP1 CPT: DT40-hTDP1 cell growth loss with CPT; chicken DT40 Tdp1-/-;hTDP1 cells + 20 nM CPT, ATP luminescence, 48 h; Potency, µM (titrated, usually from 46.2 µM), without a hit: at the top dose activity change, negative = growth inhibition, usual class: inhibitors; 420,000 tested, 12% active; AID 686979; note: potency is the fitted concentration of half-maximal effect; % is set by controls: 0 for no effect and ±100 for the full control effect; nearly all actives have a fitted effect of over 55% in size
#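 Chicken DT40 Tdp1-/- cells complemented with human TDP1, 400 cells/well, exposed to compounds plus 20 nM camptothecin for at least 48 h at 37 C; viability read as ATP content by CellTiter-Glo luminescence.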
# TDP1 block: inhibitors of human tyrosyl-DNA phosphodiesterase TDP1; recombinant TDP1, AlphaScreen DNA substrate cleavage; Potency, µM (titrated, usually from 130 µM), for inactives: at the highest dose activity change, negative = inhibition, most hits filed as inhibitors; 350,000 tested, 0.28% active; AID 485290; note: potency is the fitted concentration of half-maximal effect; % is set by controls: 0 for no effect and ±100 for the full control effect; nearly all actives have a fitted effect of over 40% in size
#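 AlphaScreen read-out: signal falls as enzyme removes the 3' tyrosine-FITC from a 5'-biotinylated DNA oligo (15 nM, 5 min, RT). Enzyme was E. coli-made recombinant Tdp1 at 1 nM, exposed to compound for 15 min beforehand; beads 10 ug/ml, 10 min.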
# TDP1 cell noCPT: qHTS for Inhibitors of human tyrosyl-DNA phosphodiesterase 1 (TDP1): qHTS in cells in absence of CPT. 420,000 tested, 15% active. Potency, µM (titrated, usually from 46.2 µM), inactives show at the top dose activity change, negative = growth inhibition, actives largely listed as inhibitors. DT40 Tdp1-/- hTDP1 cells, no CPT, ATP luminescence, 48 h; note: potency is the fitted concentration of half-maximal effect; % is set by controls: 0 for no effect and ±100 for the full control effect; nearly all actives have a fitted effect of over 55% in size
#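 No-CPT arm: Tdp1-/-;hTDP1 DT40 cells (400/well) plus compounds, incubated ≥48 hr at 37 °C. Readout CellTiter-Glo luminescence.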
# uPA surface inh: blocks generation of uPA at the cell surface; AID 540303; Potency, µM (titrated, usually from 38.3 µM), without a hit: top-dose activity change, negative = inhibition, hits mostly inhibitors; cell surface uPA generation assay, qHTS; 330,000 tested, 0.31% active; active = well fitted inhibition curve with a large enough effect; inconclusive = small, poorly fitted or top-dose-only effect; inactive = no such curve, though single readings can be large or run the other way; tested in mouse RAW 264.7 cells; note: potency is the fitted concentration of half-maximal effect; % is set by controls: 0 for no effect and ±100 for the full control effect; nearly all actives have a fitted effect of over 55% in size
# An asterisk follows results filed as active; ? = inconclusive; nt = not tested or not shown; [ ] = remark or other dose. Rows were chosen to be rich in hits. Some 16% of all compounds tested hit in one or more screens of this group. Unless noted, calls come from the whole dose curve; as a rule, active = well fitted curve in the direction sought with a large enough effect; inconclusive = small, poorly fitted or top-dose-only effect, or another doubt; inactive = no such curve, though single readings can be large; an effect the other way counts as inactive or inconclusive.
# Results follow in this order: TDP1 cell noCPT	miR-21 reporter	DT40 TDP1 CPT	TDP1 block	uPA surface inh
- O=C(CC1C(=O)N(c2ccc(F)cc2)C(=O)N1Cc1ccc2c(c1)OCO2)Nc1ccc(Cl)cc1 (stereo not given)
  21µM*	24%	?	4%	nt
- CCOC(=O)Nc1ccc(S(=O)(=O)N2CCC(C)CC2)cc1
  -15%	16%	-6%	-3%	3%
- Cc1nc(SCc2cccc(F)c2)c2oc3ccccc3c2n1
  ?	-1%	-9%	-12%	-1%
- Cc1cc(C)nc(Sc2nc(C)nc3c2oc2ccccc23)n1
  23µM*	0%	?	0%	-12%
- Cc1nc(SCC(=O)Nc2ccccc2)c2oc3ccccc3c2n1
  -30%	-6%	-5%	-5%	-3%
- Cc1nc(SCC(=O)NC(C)c2ccccc2)c2oc3ccccc3c2n1 (stereo not given)
  21µM*	-3%	16µM*	6%	-2%
- Cc1nc(SCC(=O)N2CCCc3ccccc32)c2oc3ccccc3c2n1
  ?	3%	16µM*	4%	14%
- CCC1CCc2c(sc(NC(=O)C3c4ccccc4Oc4ccccc43)c2C#N)C1 (stereo not given)
  ?	22%	?	3%	nt
- Nc1c(C(=O)N2CCCCC2)sc(=S)n1-c1ccccc1
  ?	-13%	21µM*	11%	nt
- CN(C)/C=C(\C=O)c1ccc(Cl)cc1Cl
  0%	-1%	-18%	-8%	0%

# Rewritten with tabs: entries from further up.
mol	TDP1 cell noCPT	miR-21 reporter	DT40 TDP1 CPT	TDP1 block	uPA surface inh
O=C(CC1C(=O)N(c2ccc(F)cc2)C(=O)N1Cc1ccc2c(c1)OCO2)Nc1ccc(Cl)cc1 (stereo not given)	21µM*	24%	?	4%	nt
Cc1nc(SCC(=O)Nc2ccccc2)c2oc3ccccc3c2n1	-30%	-6%	-5%	-5%	-3%
CCOC(=O)Nc1ccc(S(=O)(=O)N2CCC(C)CC2)cc1	-15%	16%	-6%	-3%	3%
CCC1CCc2c(sc(NC(=O)C3c4ccccc4Oc4ccccc43)c2C#N)C1 (stereo not given)	?	22%	?	3%	nt

# The results go on:
# Results follow in this order: TDP1 cell noCPT	miR-21 reporter	DT40 TDP1 CPT	TDP1 block	uPA surface inh
- O=C(NCc1ccco1)C1CC(=O)N(c2ccc(O)cc2)C1 (stereo not given)
  26µM*	-1%	21µM*	4%	2%
- COc1ccc(N2CC(C(=O)Nc3ccccc3C(=O)NCc3ccco3)CC2=O)cc1 (stereo not given)
  -9%	1%	-24%	5%	-1%
- O=C1CC2C(CC(OC(=O)c3ccc(-c4ccccc4)cc3)C2CO)O1 (stereo not given)
  ?	-25%	-5%	1%	6%
- O=C1C[C@H]2[C@H](CO)[C@@H](OC(=O)c3ccc(-c4ccccc4)cc3)C[C@H]2O1
  16µM*	-61%	?	4%	-5%
- COc1cccc(OC)c1-c1cnc(NC(C)=O)cn1
  1%	nt	-4%	nt	nt
- CN(C)c1ccc(CN(Cc2ccco2)C(=O)COc2ccc(F)cc2)cc1
  10µM*	23%	?	14%	nt
- Cc1ccc(CN(Cc2ccco2)C(=O)COc2cc(C)c(Cl)c(C)c2)cc1
  13µM*	8%	21µM*	0%	nt
- Cc1ccc(OCC(=O)N(Cc2ccco2)Cc2ccco2)cc1
  16µM*	-2%	?	7%	nt
- Cc1cccc(C)c1OCC(=O)N(Cc1ccco1)Cc1ccco1
  23µM*	7%	?	5%	nt
- O=C(CNC(=O)c1ccco1)N=Nc1c(O)[nH]c2ccc(Br)cc12
  4%	-8%	6%	-4%	-3%
- Cc1ccc(NC(=O)CN2CCSc3ccc(S(=O)(=O)N4CCCC4)cc32)cc1
  nt	15%	nt	5%	nt
- COc1ccc(-c2noc(C(C)n3nc(C)c([N+](=O)[O-])c3C)n2)cc1OC (stereo not given)
  ?	-2%	?	4%	8%
- Cc1cc(C)c(OCC(=O)OCC(=O)NCc2ccco2)c(C)c1
  -7%	nt	-4%	nt	nt
- Cc1cc(C)cc(OCC(=O)N(Cc2ccco2)c2c(N)n(Cc3ccccc3)c(=O)[nH]c2=O)c1
  3%	nt	-2%	0%	-18%
- Cc1cc(C)cc(OCC(=O)N(Cc2ccco2)Cc2ccccc2Cl)c1
  21µM*	11%	21µM*	6%	nt
- Cc1cc(OC(C)C(=O)N(Cc2ccco2)Cc2ccco2)cc(C)c1Cl (stereo not given)
  9.2µM*	14%	15µM*	2%	nt
- Cc1cc(C)c(OCC(=O)N(Cc2cccc(F)c2)Cc2ccco2)c(C)c1
  18µM*	?	15µM*	2%	nt
- C[N+]1(CCCOC(=O)C2(c3ccccc3)CCCC2)CCOCC1
  -17%	-9%	1%	0%	2%
- Cc1c(Cl)cccc1NCC(=O)Nc1ccc(Cl)cc1F
  -11%	-22%	-1%	3%	-1%
- NCCNC(=O)c1ncsc1-c1cccc(F)c1
  ?	nt	-2%	-4%[56.1 µM]	-6%
